The text below walks through data of ChEMBL document CHEMBL5728533, “Farnesoid X receptor modulators” (2021).

SMILES strings stand for the structures. pEC50: −log10 of the molar value.

The nature of this experiment: AlphaScreen Assay: AlphaScreen was used with the aim of identifying novel modulators by taking advantage of the bimolecular interaction prevailing between FXR and the LXXLL motif present in the NR box of the steroid receptor coactivator 1 (SRC-1).Human FXR-LBD-GST was incubated with increasing concentrations of the indicated ligands in the presence of biotinylated LXXLL SRC-1 peptide. The AlphaScreen signal increases when the complex receptor-coactivator is formed.

One may read the pEC50 as the negative decadic logarithm of the EC50, by convention in mol/L. For `CC[C@H]1[C@@H](O)C2C3CC[C@H](C(C)CC(C)C(=O)O)[C@@]3(C)C(O)CC2[C@@]2(C)CC[C@@H](O)C[C@@H]12` (stereo partly specified), the pEC50 is 3.76.
